Assay results reported in patent US20090036426A1 (AMPLA Pharmaceuticals Inc., priority 2007, published 2009).

Experiment: Acute administration: wet mash and food intake and 24 h body weight in lean mice (Example 3)
Type: in vivo, male C57BL/6J mice
Details: dosed alone; not as much of a reduction as with the combinations with bupropion
Experimental: The goal of this study was to investigate the effects of various ratios of bupropion:(R)-norfluoxetine on body weight and food and water intake in male C57BL/6J mice habituated to the daily presentation of a palatable wet mash diet. Rimonabant was used as a reference compound. Animals were maintained on normal-phase lighting. Test compounds were administered orally and measurements were made over the following 24 hours. All experiments included appropriate vehicle-treated control groups.
Sixty-two male C57BL/6J mice (weight range 20-25 g) were ordered from Harlan UK, Bicester, UK. The mice were individually housed in polypropylene cages at a temperature of 21±4° C. and 55%±20% humidity. […]
Typically an acute study was run each week with each study containing 60 animals. […] Animals were weighed and 2 h wet mash intake was calculated (to the nearest 0.1 g). […]
Drug administration occurred 60 minutes before the presentation of ‘wet mash’ which was at approximately 09:30 am. […] The mash was replaced with a fresh quantity of wet mash at the 4 hour time point. […] Wet mash was replaced with a known quantity of standard pellets at the 6 hour time point. […] Food and water intakes of the different groups of animals were measured concurrently. The animals were monitored at each reading and any overt drug-induced behavioural effects were recorded. […]

## NCC[C@@H](Oc1ccc(C(F)(F)F)cc1)c1ccccc1.O=C(O)C(O)C(O)C(=O)O [(R) -Norfluoxetine (D)-tartrate, (R)-norfluoxetine (D)-tartrate]
  weight gain: reduction
  wet mash intake: reduction
